Patent publication US20200377588A1, “Highly Versatile Method of Presenting Cyclic Peptide on Protein Structure” (The University of Tokyo, priority 2017, published 2020)

Key:
Plexin B1-Fc = target: T1, Plexin B1-Fc (Homo sapiens, UniProt O43157); experiment: pulldown, Plexin B1-Fc captured on protein A-Sepharose, SDS-PAGE; assay type: binding; settings: Example 4, HSA mutants, FIG. 17
T1 construct: Protein A Sepharose that had captured a soluble receptor fragment Plexin B1-Fc therein
T1 sequence (O43157 20-1490 limits assumed): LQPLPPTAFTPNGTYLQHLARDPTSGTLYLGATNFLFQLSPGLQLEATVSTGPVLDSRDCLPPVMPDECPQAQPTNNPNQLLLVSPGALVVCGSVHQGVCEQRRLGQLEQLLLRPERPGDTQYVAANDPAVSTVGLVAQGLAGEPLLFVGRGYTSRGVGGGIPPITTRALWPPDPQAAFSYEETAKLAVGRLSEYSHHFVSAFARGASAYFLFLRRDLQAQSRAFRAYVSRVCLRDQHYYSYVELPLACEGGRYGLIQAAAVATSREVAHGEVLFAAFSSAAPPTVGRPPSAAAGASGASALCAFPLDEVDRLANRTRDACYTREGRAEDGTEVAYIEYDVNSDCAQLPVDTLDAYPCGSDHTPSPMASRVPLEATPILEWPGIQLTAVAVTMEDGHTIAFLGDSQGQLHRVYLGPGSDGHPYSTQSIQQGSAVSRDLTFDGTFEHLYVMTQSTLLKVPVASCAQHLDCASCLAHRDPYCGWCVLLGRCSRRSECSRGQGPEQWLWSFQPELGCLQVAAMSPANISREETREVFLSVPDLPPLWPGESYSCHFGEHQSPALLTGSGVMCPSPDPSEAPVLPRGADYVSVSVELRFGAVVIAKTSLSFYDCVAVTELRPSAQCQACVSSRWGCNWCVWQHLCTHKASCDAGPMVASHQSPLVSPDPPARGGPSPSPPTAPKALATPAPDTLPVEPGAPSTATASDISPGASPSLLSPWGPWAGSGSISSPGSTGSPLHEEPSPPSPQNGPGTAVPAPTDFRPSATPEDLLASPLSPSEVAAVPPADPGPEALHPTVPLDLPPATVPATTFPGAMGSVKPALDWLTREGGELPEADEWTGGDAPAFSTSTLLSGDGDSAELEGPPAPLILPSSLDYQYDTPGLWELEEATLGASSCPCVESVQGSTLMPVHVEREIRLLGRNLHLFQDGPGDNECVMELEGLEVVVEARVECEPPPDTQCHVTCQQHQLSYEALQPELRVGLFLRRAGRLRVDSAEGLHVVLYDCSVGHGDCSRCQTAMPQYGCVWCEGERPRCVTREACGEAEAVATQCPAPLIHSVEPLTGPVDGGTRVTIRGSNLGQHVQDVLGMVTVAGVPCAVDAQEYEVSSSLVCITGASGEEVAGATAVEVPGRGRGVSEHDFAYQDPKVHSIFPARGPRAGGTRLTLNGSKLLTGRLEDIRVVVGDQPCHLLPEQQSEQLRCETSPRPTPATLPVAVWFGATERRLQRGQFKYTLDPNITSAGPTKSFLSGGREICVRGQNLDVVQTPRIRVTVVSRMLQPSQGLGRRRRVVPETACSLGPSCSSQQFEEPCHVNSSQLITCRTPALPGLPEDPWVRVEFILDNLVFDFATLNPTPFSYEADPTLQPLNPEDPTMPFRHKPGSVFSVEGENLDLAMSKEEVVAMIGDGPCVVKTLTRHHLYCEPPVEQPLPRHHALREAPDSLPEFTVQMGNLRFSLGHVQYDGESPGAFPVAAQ
Text: Binding of the resulting cyclic peptide fusion proteins (HSA mutants) to a soluble receptor fragment of Plexin B1 or Met was confirmed by the method described above in Example 1. It is to be noted, however, that for the mP6-9 peptide fusion protein, not Plexin B1-PA but Plexin B1-Fc protein was used as a binding molecule and as pulldown beads, not NZ-1-Sepharose but protein A-Sepharose was used.
Binding of the resulting cyclic peptide fusion protein (RBP mutant) to Protein A Sepharose that had captured a soluble receptor fragment Plexin B1-Fc therein by a method similar to that described above was studied by the pulldown method.
Binding of the resulting cyclic peptide fusion protein (PLAP mutant) to Protein A Sepharose that had captured a soluble receptor fragment Plexin B1-Fc or Met-Fc therein by the method described above I Example 1 was studied by the pulldown method.

Met-PA = target: T2, Met-PA (Homo sapiens, UniProt P08581); experiment: pull-down type binding experiment, Met-PA captured on NZ-1 Sepharose, SDS-PAGE; settings: Example 4, HSA mutants, FIG. 17
T2 construct: made in house; host or cells: Expi293F cells (secreted, culture supernatant)

binding to Plexin B1-Fc (pulldown) (Plexin B1-Fc): does not bind to the binding molecule
binding to Met-PA (pulldown) (Met-PA): does not bind to the binding molecule
Substance: HSA: full-length human serum albumin with Hisx8 and Myc tags, no cyclic peptide fused; control
